According to publication PMC3799725, “Detection of Active Matriptase Using a Biotinylated Chloromethyl Ketone Peptide” (PLoS ONE, 2013):

Legend:
[1] = tested on: matriptase SPD; assay: Chromogenic assay: inhibition of matriptase SPD cleavage of S2288; details: 0.2 nM SPD, 405 nm, representative of 3 independent experiments
[2] = tested on: matriptase (Caco-2 cells)
[3] = aqueous solution, under the experimental conditions described (20 mM Hepes pH 7.4, 140 mM NaCl, 0.1% BSA, 37°C); roughly estimated, data not shown

## biotin-Arg-Gln-Arg-Arg-chloromethyl ketone
[1]; 5 nM inhibitor pre-incubated 120 min or longer (120 and 180 min) at 37°C, Hepes pH 7.4, S2288 300 µM
  inhibition of matriptase SPD after longer pre-incubation of inhibitor: gradually reduces the efficiency of biotin-RQRR-CMK inhibition
[1]; 50 µM inhibitor, no pre-incubation, 20 mM Hepes pH 7.4, 140 mM NaCl, 0.1% BSA, 10 min at 37°C, S2288 300 µM final
  inhibition of matriptase SPD cleavage of chromogenic substrate: unable to cleave the chromogenic substrate
[2]; 50 µM, 30 min at 37°C (figure 4 lanes 7 and 8)
  labeling level at pH 6.0 compared to pH 7.4: Higher levels of biotin-RQRR-CMK reactive matriptase was observed when labeling was performed at pH 6.0 as compared to pH 7.4
[2]; 50 µM, basolateral side, 37°C, 2 min labeling (figure 2A lane 3)
  amount of matriptase reacting with biotin-RQRR-CMK, 2 min: below the detection limit of the assay
[2]; basolateral plasma membrane of Caco-2 cells
  level of reactive matriptase compared with NHS-SS-biotin labeling: only low levels of biotin-RQRR-CMK-reactive matriptase could be detected
[3]
  half-life: ~25 min
